The record followed here is publication PMC11125646 (Viruses, 2024).

The test system of the test is OC43. The experiment in a line: Adsorption assay (OC43, Vero-76). The note with it: virus and cells incubated at 4 °C in presence of compound.

Turning to Dextran sulphate [reference compound], the “block of OC43 viral binding (adsorption)” value was “efficiently able to block OC43 viral binding”.
